Assay results taken from BindingDB's records for doi:10.1111/j.1471-4159.1985.tb08803.x (Lundbeck Ais, 1985).

Sequences of proteins named here, by UniProt entry; tags and fusion partners are left off.
UniProt P31652, whole entry: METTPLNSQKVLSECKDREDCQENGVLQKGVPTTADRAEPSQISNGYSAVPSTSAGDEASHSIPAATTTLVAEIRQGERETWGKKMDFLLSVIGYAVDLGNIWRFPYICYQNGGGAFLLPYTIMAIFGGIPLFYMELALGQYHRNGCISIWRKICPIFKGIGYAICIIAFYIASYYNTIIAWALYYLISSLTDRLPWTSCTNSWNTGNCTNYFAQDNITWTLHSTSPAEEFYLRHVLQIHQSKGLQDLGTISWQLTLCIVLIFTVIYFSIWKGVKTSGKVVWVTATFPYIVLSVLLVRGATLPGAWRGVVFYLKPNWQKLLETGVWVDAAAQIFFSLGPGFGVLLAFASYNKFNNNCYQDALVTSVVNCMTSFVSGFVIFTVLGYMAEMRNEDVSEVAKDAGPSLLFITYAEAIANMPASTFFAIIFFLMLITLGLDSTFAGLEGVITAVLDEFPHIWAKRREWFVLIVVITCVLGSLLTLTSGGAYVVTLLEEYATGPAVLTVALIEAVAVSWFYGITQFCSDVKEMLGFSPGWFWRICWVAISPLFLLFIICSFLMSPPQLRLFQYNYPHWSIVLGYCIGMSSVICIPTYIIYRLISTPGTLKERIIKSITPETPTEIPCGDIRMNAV
UniProt P23977, whole entry: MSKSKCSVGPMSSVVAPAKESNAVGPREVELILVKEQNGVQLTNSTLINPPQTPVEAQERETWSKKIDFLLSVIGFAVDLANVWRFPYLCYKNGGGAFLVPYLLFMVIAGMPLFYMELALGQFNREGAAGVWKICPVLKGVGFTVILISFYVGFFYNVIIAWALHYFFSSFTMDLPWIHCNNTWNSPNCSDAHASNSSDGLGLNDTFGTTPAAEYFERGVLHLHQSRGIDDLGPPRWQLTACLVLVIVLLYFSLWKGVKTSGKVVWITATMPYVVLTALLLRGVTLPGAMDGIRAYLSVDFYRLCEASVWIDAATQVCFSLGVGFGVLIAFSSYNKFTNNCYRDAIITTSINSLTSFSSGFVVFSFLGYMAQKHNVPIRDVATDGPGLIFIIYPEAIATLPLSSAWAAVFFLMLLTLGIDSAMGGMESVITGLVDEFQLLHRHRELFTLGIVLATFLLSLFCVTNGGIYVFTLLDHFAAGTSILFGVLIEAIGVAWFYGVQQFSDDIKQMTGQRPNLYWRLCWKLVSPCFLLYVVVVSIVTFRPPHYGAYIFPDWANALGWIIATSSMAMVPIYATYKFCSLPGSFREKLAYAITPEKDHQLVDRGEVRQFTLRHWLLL
UniProt P14842, whole entry: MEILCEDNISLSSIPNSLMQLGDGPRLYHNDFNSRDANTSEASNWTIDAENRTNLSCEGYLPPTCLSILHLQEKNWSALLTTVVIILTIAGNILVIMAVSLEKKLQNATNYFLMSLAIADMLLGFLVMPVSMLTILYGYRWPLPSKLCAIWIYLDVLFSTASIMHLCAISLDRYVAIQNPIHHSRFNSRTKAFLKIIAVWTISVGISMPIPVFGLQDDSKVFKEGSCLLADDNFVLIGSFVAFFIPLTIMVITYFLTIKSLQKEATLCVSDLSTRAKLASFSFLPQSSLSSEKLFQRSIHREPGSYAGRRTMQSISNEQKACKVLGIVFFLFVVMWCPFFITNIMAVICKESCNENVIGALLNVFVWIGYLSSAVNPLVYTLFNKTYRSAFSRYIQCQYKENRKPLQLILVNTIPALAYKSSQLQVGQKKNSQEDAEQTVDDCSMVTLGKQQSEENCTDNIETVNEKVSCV

Columns and labels:
[1] = target: Sodium-dependent serotonin transporter (Rattus norvegicus, UniProt P31652)
[2] = target: Sodium-dependent dopamine transporter (Rattus norvegicus, UniProt P23977)
[3] = target: 5-hydroxytryptamine receptor 2A (Rattus norvegicus, UniProt P14842)

Structure (SMILES) | Ki [1] | other results
COc1ccc2c(c1)CN(C)CC2c1ccc(Cl)c(Cl)c1 (centres undefined) | 3.7 nM | –
CN[C@H]1C[C@H](c2ccc(Cl)c(Cl)c2)c2ccccc21 [CAS_96850-13-4] | – | Ki [2]: 0.99 nM
CN1Cc2c(N)cccc2[C@H](c2ccccc2)C1 [(+/-)-2-Methyl-4-phenyl-1,2,3,4-tetrahydro-isoquinolin-8-ylamine] | 830 nM | –
CN(C)CCCC1(c2ccc(F)cc2)OCc2cc(C#N)ccc21 (centres undefined) [CITALOPRAM HYDROBROMIDE] | – | Ki [3]: 9.2 µM

Where a name gives a salt, the structure may show the parent alone.
